The assay deals with Mortierella elongata AG77. As to the kind of experiment: Carbon source utilisation in Biolog 96-well plates, formazan formation after tetrazolium addition. It counts as cell-based. On the procedure: Two 300 mL volumes of growth medium comprising 1 g/L KH2PO4, 1 g/L MgSO4 7H2O, 0.1 g/L CaCl2, 0.02 g/L FeNaEDTA, 0.1 g/L NaCl, and either 1 g/L NH4NO3 or 20 g/L sucrose were prepared. Acidity was adjusted to 5.5 using NaOH and volumes of growth medium were autoclaved 30 min at 121° C. to sterilize. Aliquots of 200 μL of carbon-free medium or nitrogen-free medium were pipetted into each well of a set of 96-well plates previously prepared with lyophilized putative carbon or nitrogen sources (Biolog Inc., Hayward, Calif.). Inocula were prepared by perforating a culture of Mortierella elongata AG77 grown on 20 g/L potato dextrose agar with a 3 mm diameter cork borer and separating the surface mycelial mat from the solid growth medium using tweezers. Each well was inoculated with one inoculum. Cultures were incubated at 21° C. for 24 hours to allow metabolic changes to stabilize, and then 100 μL of 3 g/L tetrazolium chloride in water was added to each well. Formazan formation was observed visually at 2 h, 24 h, and 148 h.
Conclusions were based on rate and intensity of formazan formation using the 3-4,5-dimethylthiazol-2-yl)-2,5-diphenyltetrazolium bromide (MTT) assay. “Metabolized” indicates more formazan formation than a control containing no carbon source, and “Toxic” indicates less formazan formation than a control containing no carbon source. […]

The structures appear in SMILES notation.

Take `O=C(O)CCC(=O)C(=O)O` [α-Keto-Glutaric Acid]: the Metabolized entry (compound as carbon source, Metabolized = more formazan formation than a control containing no carbon source, observed visually at 2 h, 24 h, 148 h) is on record as “yes”. Besides, the “Carbon sources that Mortierella elongata AG77 can metabolize” value (summary of Table 3) was “can metabolize”.

The record behind these values is patent US20200325505A1, “FILAMENTOUS FUNGI CAPABLE OF PRODUCING VERY LONG CHAIN FATTY ACIDS” (UT-Battelle, LLC, priority 2019, published 2020).
